{"source": "patent US6645504B1", "about": "“Bystander suppression of type I diabetes by oral administration of glucagon” (AutoImmune Inc., priority 1987, dated 2003)", "system": "uveoretinitis", "experiment": "Human trials with oral S-antigen", "assay_type": "in vivo, humans", "source_text": "The above animal models can be used to establish the utility of the present invention in mammals (including humans). […] All of these human trials were attempted based on animal data using the appropriate disease model.", "data": [{"substance": "S-antigen: oral S-antigen used in human uveoretinitis trials", "values": [{"measurement": "results for uveoretinitis", "value": "very encouraging results"}]}]}
